Experimental data: patent US10004732B2 (Novartis AG, priority 2014, dated 2018)

Protein sequences, listed by entry. Tags and fused reporters are not part of them. Lines headed by an entry give the natural chain unless they say otherwise; changes in a name come on top.
UniProt P42338: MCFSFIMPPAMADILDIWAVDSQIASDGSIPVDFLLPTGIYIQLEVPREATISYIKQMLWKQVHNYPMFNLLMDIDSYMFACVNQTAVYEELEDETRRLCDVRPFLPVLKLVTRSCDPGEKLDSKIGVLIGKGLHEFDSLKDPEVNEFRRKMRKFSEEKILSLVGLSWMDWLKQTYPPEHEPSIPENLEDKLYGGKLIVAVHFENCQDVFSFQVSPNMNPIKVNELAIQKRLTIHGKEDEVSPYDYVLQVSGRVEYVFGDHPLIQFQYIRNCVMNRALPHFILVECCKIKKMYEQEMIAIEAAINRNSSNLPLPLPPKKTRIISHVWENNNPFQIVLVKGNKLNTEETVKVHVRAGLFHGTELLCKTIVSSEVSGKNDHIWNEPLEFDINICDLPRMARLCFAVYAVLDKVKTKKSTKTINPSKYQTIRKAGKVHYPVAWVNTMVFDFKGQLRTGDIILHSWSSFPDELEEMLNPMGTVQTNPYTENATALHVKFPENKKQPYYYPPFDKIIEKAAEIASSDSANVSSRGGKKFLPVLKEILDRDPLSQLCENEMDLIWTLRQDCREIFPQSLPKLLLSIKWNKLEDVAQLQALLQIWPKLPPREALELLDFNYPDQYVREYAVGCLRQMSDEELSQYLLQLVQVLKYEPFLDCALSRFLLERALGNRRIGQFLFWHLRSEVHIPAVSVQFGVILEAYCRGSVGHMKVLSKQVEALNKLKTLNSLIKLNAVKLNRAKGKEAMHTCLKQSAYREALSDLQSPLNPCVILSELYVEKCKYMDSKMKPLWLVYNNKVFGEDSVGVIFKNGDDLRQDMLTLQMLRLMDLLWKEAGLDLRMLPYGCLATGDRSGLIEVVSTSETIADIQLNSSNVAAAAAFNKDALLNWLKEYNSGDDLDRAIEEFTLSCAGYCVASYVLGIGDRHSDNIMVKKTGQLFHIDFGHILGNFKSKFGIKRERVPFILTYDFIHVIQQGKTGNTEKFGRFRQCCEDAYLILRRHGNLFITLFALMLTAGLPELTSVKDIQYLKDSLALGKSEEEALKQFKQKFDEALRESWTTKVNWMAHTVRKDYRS

Target: PI 3-kinase beta (Homo sapiens, UniProt P42338)
Experiment: Kinase Glo Luminescent Kinase Assay (Kglo), assay B
Assay type: biochemical
Details: read-out: Assay B PI3Kβ IC50

For `Cc1nnc(-c2nc(-c3cc(S(=O)(=O)N[C@H]4CC[C@H](O)CC4)ccc3C)cnc2N)o1` [Example 1, Trans-3-[5-Amino-6-(5-methyl-[1,3,4]oxadiazol-2-yl)-pyrazin-2-yl]-N-(4-hydroxy-cyclohexyl)-4-methyl-benzenesulfonamide], the IC50 was 5.86 µM.

Compound `Cc1noc(-c2nc(-c3cc(S(=O)(=O)N[C@H]4CC[C@H](O)CC4)ccc3C)cnc2N)n1` [Example 2, Trans-3-[5-Amino-6-(3-methyl-[1,2,4]oxadiazol-5-yl)-pyrazin-2-yl]-N-(4-hydroxy-cyclohexyl)-4-methyl-benzenesulfonamide] has an IC50 of 7.6 µM.
